Experimental data: BindingDB's records for doi:10.1254/jjp.52.195 (Niigata College of Pharmacy, 1990)

Amino acid sequences for entries named in this document (tags omitted).
UniProt P10608, whole entry: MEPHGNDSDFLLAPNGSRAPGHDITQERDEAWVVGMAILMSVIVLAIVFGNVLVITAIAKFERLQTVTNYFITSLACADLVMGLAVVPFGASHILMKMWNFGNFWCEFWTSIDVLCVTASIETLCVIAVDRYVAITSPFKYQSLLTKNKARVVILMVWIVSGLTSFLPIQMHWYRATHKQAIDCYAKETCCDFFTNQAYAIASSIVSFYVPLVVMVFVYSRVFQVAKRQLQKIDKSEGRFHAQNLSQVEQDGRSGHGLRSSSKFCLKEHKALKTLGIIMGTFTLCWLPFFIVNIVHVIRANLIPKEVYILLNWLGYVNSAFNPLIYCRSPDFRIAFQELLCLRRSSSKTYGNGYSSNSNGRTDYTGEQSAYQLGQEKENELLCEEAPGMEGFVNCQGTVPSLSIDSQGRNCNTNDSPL
UniProt P18090, whole entry: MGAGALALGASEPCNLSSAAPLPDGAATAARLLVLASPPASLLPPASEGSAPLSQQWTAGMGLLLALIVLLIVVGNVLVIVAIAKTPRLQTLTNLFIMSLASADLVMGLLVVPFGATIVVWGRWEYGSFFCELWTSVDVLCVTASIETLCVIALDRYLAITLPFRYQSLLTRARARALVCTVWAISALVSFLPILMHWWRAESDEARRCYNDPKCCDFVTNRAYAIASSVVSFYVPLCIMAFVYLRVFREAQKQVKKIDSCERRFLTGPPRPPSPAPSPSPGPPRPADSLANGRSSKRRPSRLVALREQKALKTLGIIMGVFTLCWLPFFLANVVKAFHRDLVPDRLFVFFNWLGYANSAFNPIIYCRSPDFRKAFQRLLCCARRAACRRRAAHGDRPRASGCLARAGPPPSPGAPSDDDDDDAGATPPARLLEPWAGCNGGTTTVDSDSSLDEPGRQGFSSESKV
UniProt P28564, whole entry: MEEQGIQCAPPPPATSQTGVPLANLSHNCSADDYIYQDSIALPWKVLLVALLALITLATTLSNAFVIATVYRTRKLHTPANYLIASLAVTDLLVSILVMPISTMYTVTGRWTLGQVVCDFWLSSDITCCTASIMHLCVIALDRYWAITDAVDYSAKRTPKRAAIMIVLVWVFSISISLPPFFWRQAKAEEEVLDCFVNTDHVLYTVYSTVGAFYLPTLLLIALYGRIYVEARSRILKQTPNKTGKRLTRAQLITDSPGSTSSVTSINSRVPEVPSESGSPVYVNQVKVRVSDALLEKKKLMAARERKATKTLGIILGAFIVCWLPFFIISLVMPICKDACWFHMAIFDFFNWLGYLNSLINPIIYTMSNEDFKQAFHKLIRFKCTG

What was measured:
[1] = biological target: Beta-2 adrenergic receptor (Rattus norvegicus, UniProt P10608)
[2] = biological target: Beta-1 adrenergic receptor (Rattus norvegicus, UniProt P18090)
[3] = biological target: 5-hydroxytryptamine receptor 1B (Rattus norvegicus, UniProt P28564)

Row | Ki [1] [nM] | Ki [2] [nM] | Ki [3] [nM] | Structure (SMILES)
1 | 0.58 | 4.17 |  | C=CCc1ccccc1OC[C@@H](O)CNC(C)C [ALPRENOLOL,(-)]
2 |  |  | > 10000 | CC(C)NCC(O)COc1ccc(CC(N)=O)cc1 (centres undefined) [Artrenolol]
3 |  | 126 |  | CCCC(=O)Nc1ccc(OCC(O)CNC(C)C)c(C(C)=O)c1 (centres undefined) [N-{3-acetyl-4-[2-hydroxy-3-(propan-2-ylamino)propoxy]phenyl}butanamide]
